Molecules are shown by their SMILES. This is a selection; strong and weak results do not stand in their true shares. Calls of active or inactive are those of the source.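 Rule for the calls: active = compounds whose fluorescence signal differed from control wells by over 3 SD, either direction, in both duplicate plates; inactive = the rest.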

Chains of the proteins cited; added tags and fusions are not shown.
UniProt Q9QUQ5, whole entry: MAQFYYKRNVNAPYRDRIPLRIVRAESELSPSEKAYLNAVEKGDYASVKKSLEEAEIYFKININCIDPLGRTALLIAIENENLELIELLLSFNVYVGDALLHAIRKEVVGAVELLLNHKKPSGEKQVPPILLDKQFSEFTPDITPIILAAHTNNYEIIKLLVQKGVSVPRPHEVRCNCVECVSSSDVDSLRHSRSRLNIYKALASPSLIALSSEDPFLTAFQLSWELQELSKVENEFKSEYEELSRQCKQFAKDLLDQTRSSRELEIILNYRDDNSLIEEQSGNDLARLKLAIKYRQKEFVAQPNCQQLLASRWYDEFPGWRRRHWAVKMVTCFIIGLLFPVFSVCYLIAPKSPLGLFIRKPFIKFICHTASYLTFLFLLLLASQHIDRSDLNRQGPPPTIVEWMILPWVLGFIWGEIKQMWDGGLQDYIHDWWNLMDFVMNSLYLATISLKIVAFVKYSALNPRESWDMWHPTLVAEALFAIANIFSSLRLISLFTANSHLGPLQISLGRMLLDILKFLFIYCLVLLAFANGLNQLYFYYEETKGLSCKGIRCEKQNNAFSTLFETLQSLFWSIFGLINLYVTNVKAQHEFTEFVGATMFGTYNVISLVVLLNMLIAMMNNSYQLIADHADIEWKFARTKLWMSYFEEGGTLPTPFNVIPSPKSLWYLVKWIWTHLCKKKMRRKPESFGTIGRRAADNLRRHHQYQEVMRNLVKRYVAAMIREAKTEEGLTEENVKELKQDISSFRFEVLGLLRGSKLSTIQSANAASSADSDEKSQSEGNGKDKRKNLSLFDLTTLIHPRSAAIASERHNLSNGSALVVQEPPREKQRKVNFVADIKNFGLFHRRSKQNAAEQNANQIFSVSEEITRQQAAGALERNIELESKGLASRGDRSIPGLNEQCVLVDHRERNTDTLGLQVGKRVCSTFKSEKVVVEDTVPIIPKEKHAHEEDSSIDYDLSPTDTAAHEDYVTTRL

The assay deals with Short transient receptor potential channel 4 (Mus musculus) (UniProt Q9QUQ5). As to the kind of experiment: mouse TRPC4 membrane potential modulation by TRPC6 hits, confirmation, selectivity assay for TRPC6 inhibitor project, cell-based, second specificity screen, HEK293 TRPC4/mu-opioid (AID 2776). As to conditions: HEK293 TRPC4/MOR, membrane potential dye fluorescence; at 10 µM; channel activated by saturating DAMGO dose.
Take `CCOC(=O)c1ccc(NP(C)(=O)Oc2ccc(Cl)cc2)cc1` (stereo not given): the molecule was classed as inactive. With `CN(C)CCOC(=O)C(O)(c1ccccc1)C1CCCCC1` (stereo not given) the entry was “inactive”; with `CCN(CC)CCCOC(=O)C(O)(c1ccccc1)C1CCCCC1` (stereo not given), “inactive”. On to `O=C(OCCCN1CCCC1)C(O)(c1ccccc1)C1CCCCC1` (stereo not given), for which the molecule was classed as inactive. As to `CN(C)CCOC(=O)C(O)(c1ccccc1)C1CCCC1` (stereo not given), the molecule was called inactive.
